# System: ACLT-induced arthritic rabbits
# Assay: Chondroprotective effect of intra-articular IL-1ra linker hydrogel prodrug in ACLT rabbits
# Assay type: in vivo, female Hyla NG rabbits
# Conditions: eight weeks after intraarticular injection
# Description: Arthritis was induced in 24 weeks old female Hyla NG rabbits (average weight 4.4 kg) by anterior cruciate ligament transection (ACLT) of the right knee. Four days after surgery animals were injected intraarticularly with IL-1ra linker hydrogel prodrug 16a (7.5 mg IL-1ra content) in 350 μl citrate buffer pH 6.5 or with 350 μl citrate buffer alone. Eight weeks after injection, animals were sacrificed. The severity of macroscopic changes on cartilage of the right knee were graded by India Ink uptake. […] Osteophyte formation on the medial condyle was less intense in the IL-1ra group compared to control group.
molecule,measurement,setting,value
"16a: IL-1ra linker hydrogel prodrug from maleimide functionalized hydrogel beads 14a and IL-1ra-linker conjugate 15c; 0.67 mg IL1RA/mg hydrogel (conjugate, UniProt P18510 26-177, looked up, linker-hydrogel prodrug, IL-1ra linker hydrogel prodrug from maleimide functionalized hydrogel beads 14a and IL-1ra-linker conjugate 15c; 0.67 mg IL1RA/mg hydrogel) Interleukin-1 receptor …: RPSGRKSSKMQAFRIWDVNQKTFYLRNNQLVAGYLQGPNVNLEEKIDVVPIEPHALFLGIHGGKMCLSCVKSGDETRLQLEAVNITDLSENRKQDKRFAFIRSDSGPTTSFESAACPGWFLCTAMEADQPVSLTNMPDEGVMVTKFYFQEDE","Signs of cartilage degradation (India Ink uptake, right knee)","7.5 mg IL-1ra content, vs citrate buffer control",much less signs of degradation compared to the control group
same,Osteophyte formation in the tibial plateau,vs control group,no signs of osteophyte formation
same,Osteophyte formation on the medial condyle,vs control group,less intense

# — patent US10980860B2, “Diagnosis, prevention and treatment of diseases of the joint” (Ascendis Pharma A/S, priority 2012, dated 2021)
